Laboratory results taken from article PMC5415407 (Structure (London, England : 1993), 2017).

Biological target: T1, DPF domain of MORF (Homo sapiens, UniProt Q8WYB5)
T1 sequence (Q8WYB5 211-322): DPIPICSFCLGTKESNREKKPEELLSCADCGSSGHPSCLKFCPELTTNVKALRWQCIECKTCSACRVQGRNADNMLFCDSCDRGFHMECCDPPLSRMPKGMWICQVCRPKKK
Assay: 1H,15N HSQC NMR titration of 15N-labeled MORF DPF
Type: binding
Details: 0.15 mM 15N-labeled MORF DPF, 1xPBS pH 6.5, 5 mM DTT, 8–10% D2O, 298K, 600 MHz

Exchange regime on the NMR time scale, intermediate exchange regime:
H3K14ac: histone H3 peptide (residues 1-19 of H3) acetylated at lysine 14, synthesized by Synpeptide
H3K14hib: histone H3 peptide (residues 1-19 of H3) 2-hydroxyisobutyrylated at lysine 14, synthesized by Synpeptide
H3K14su: histone H3 peptide (residues 1-19 of H3) succinylated at lysine 14, synthesized by Synpeptide
